The numbers were not newly measured in publication PMC2570394 (Diabetes, 2008), which cites them from elsewhere.

Structures are written as SMILES.

In the series the test system is hepatic CB1 receptors. The note with it: mice, 10 mg/kg, 3 weeks; cited from earlier work.

Turning to `Cc1c(C(=O)NN2CCCCC2)nn(-c2ccc(Cl)cc2Cl)c1-c1ccc(Cl)cc1` [SR141716, Rimonabant], the alcohol-induced steatosis entry is reported as “attenuated”.
